Literature values in patent US8183046B2, “Temperature resistant pH buffers for use at low temperatures” (The Board of Trustees of the University of Illinois, priority 2007, dated 2012).

Settings: Table 5, in parentheses; single value; cited from earlier work

## NC(CO)(CO)CO [Trizma, 2-Amino-2-(hydroxymethyl)-1,3-propanediol]
  pKa values for the single buffers: (8.06)
